The record followed here is US9957273B2, “5-substituted 7- [4-(2-pyridyl)phenylmethylamino] -3-isopropylpyrazolo4,3-D]pyrimidine derivatives, use thereof as medicaments, and pharmaceutical compositions” (USTAV EXPERIMENTALNI BOTANIKY AV CR, V.V.I., priority 2015, dated 2018).

Sequences of proteins named here, by UniProt entry; tags and fusion partners are left off.
UniProt Q00535, whole entry: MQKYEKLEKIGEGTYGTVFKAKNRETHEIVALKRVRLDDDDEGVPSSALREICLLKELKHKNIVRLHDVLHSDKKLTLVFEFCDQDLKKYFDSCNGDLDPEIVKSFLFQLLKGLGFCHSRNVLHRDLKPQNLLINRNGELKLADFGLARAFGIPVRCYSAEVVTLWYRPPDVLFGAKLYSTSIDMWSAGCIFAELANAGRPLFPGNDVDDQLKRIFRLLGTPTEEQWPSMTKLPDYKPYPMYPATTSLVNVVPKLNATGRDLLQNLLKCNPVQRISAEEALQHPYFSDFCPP

In this test the target is T1, CDK5/p35 (Homo sapiens, UniProt Q00535).
T1 construct: purchased ProQinase GmbH
Nature of the test: CDK5/p35 kinase inhibition (33P-ATP, histone H1). It counts as biochemical. The conditions noted are these: 0.15 μM ATP.
Broadly, the IC50 is the concentration at which inhibition is half-maximal. In the case of `CC(C)c1[nH]nc2c(NCc3ccc(-c4ccccn4)cc3)nc(NC[C@@H](C)O)nc12` [Compound 27], the IC50 was determined as 0.005 µM.
With `CC[C@H](CO)Nc1nc(NCc2ccc(-c3ccccn3)cc2)c2n[nH]c(C(C)C)c2n1` [Compound 83] the figure was 0.009 µM; with `CC[C@@H](CO)Nc1nc(NCc2ccc(-c3ccccn3)cc2)c2n[nH]c(C(C)C)c2n1` [Compound 84], 0.021 µM.
